Data taken from PubChem BioAssay AID720506 (National Center for Advancing Translational Sciences (NCATS), 2013).
The entries are a selection whose mix differs from that of the whole data set. Results filed as inconclusive are left out. Active and inactive are the calls of the source. Calls follow the shape of the dose curve; as a rule, active = well fitted activation curve with a large enough effect; inconclusive = small, poorly fitted or top-dose-only effect; inactive = flat fitted curve, though single readings scatter.

Amino acid sequences for entries named in this document (tags omitted).
UniProt P35462, whole entry, looked up: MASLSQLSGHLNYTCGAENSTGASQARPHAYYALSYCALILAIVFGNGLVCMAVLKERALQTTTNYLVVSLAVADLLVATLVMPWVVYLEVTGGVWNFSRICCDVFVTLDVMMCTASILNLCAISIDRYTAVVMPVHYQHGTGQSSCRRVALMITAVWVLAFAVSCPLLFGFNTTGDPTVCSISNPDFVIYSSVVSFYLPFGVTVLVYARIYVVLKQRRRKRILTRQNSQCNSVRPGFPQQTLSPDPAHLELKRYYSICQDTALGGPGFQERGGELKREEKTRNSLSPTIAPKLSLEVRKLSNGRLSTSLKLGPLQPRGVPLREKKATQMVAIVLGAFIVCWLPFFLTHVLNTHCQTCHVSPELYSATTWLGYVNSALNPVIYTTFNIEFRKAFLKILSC

These compounds were tested against D(3) dopamine receptor (Homo sapiens) (UniProt P35462) (assay: qHTS of D3 Dopamine Receptor Agonist: D3 Dopamine Receptor B-arrestin Agonist Confirmatory Assay). Conditions: DiscoveRx D3 beta-arrestin cells, luminescence, 90 min.
Text: D3 DARs represent a very important target for the treatment of several neuropsychiatric disorders. Indeed, one of the most promising therapeutic applications for the D3 DAR is in the area of addiction and related disorders. […] These findings have been observed with a number of addictive substances including cocaine, amphetamine, nicotine, and alcohol. […] Increased D3 DAR activity can thus lead to neuroprotective and neurorestorative actions in the CNS. […] This assay is used to confirm the activity of the identified D3 dopamine receptor agonist. Activation is the desired outcome for this assay. NIH Molecular Libraries Probe Production Centers Network [MLPCN] NIH Chemical Genomics Center [NCGC] MLPCN Grant: NS064831 Assay Submitter (PI): David Sibley
Freshly passaged DiscoveRx D3 cells are plated in 1536 well white, solid bottom plates at a density of 1500 cells/well in 3microl of complete media. After an overnight incubation at 37 degrees C in 5% CO2, cells are loaded with 23nl of test compound from the compound library (as well as dopamine controls) using a 1536 pintool and incubated at 37 degrees C for 90 minutes. Two microliters of DiscoveRx reagent is then added to all cells, and they are incubated for an additional 30 - 60 minutes at room temperature. Following incubation, luminescence is measured on a ViewLux CCD-based luminometer reader using a 20 sec exposure time.
Also: nearly all actives have a fitted effect of over 70% in size.
Potency is read from the fitted curve at half-maximal effect.

SMILES | Potency
CCCN1CCC[C@@H](c2cccc(O)c2)C1 | active: 112 nM
CCCN1CCC[C@H](c2cccc(O)c2)C1 | active: 158 nM
